Where two headings read alike, the source gives them in different places.
Key:
[1] = system: chlorine-resistant Methylobacterium strain; details: 2 ppm free chlorine only; 40 seconds
[2] = system: chlorine-resistant Methylobacterium strain; details: 0.3 ppm free chlorine alone; 40 seconds
[3] = system: chlorine-resistant Methylobacterium strain
[4] = system: chlorine-resistant Methylobacterium strain; assay: Survival rate after exposure to electrolyzed water containing only free chlorine, chlorine-resistant strain; details: 4 ppm free chlorine; exposed for 10 seconds; Comparative Example 2
[5] = system: chlorine-resistant Methylobacterium strain; remark: listed apart in the source
[6] = system: Methylobacterium reference strain; assay: Survival rate after exposure to electrolyzed water containing only free chlorine, reference strain; details: 1.5 ppm free chlorine, Comparative Example 2

What does the source list for free chlorine?
inner structure of cell body (electron microscope) [1]: an organization is packed inside the cell body similarly to the blank; degree of membrane damage (red fluorescence intensity/green fluorescence intensity) [2]: 0.069; bactericidal rate ([3]; 0.2 ppm free chlorine, Test 7): 12.5%; bactericidal rate ([3]; 0.375 ppm free chlorine, Test 2 / Comparative Example 1): 10.6%; bactericidal rate ([3]; 0.75 ppm free chlorine, Test 3 / Comparative Example 1): 19.7%; bactericidal rate ([3]; 1.0 ppm free chlorine, Test 6): 28.3%; bactericidal rate ([3]; 1.5 ppm free chlorine, Test 5): 89.4%; bactericidal rate ([3]; 1.5 ppm free chlorine, exposure 10 to 40 seconds, Tests 1 and 4): 30.6%; survival rate [4]: more than 0.1; bactericidal effect (common logarithm of initial bacteria number minus common logarithm of remaining bacteria number) ([5]; 2.0 ppm free chlorine, bovine serum albumin 2 mg/L, Test 8): 0.69; bactericidal effect (common logarithm of initial bacteria number minus common logarithm of remaining bacteria number) ([5]; 4.9 ppm free chlorine, bovine serum albumin 20 mg/L, Test 9): 1.64; bactericidal effect (common logarithm of initial bacteria number minus common logarithm of remaining bacteria number) ([5]; 4.9 ppm free chlorine, bovine serum albumin 60 mg/L, Test 10): 0.20; survival rate [6]: less than 0.001

From patent US20250320138A1 (priority 2022, published 2025)
